According to publication PMC3794980, “Identification of Conserved and HLA Promiscuous DENV3 T-Cell Epitopes” (PLoS Neglected Tropical Diseases, 2013):
Where two headings read alike, the source gives them in different places.

Key:
DRB4*0101 = DRB4*0101 (Homo sapiens, UniProt P01903+P13762, G164S); test: biochemical; type: binding; conditions: read-out: Binding Affinity (nM) DRB4*0101
DRB1*0101 = DRB1*0101 (Homo sapiens, UniProt P01903+P01911, A100R/D57E/F55L/F60I/F76Y/I96L/L162R/M171V/P40L/Q125E/R42F/V115G/Y59C); test: biochemical; type: binding
DRB1*0301 = DRB1*0301 (Homo sapiens, UniProt P01903+P01911, A100K/A102G/A103R/A169T/F55Y/I96L/K41T/L162R/M171V/P40S/Q125H/Q178H/Q39Y/R42S/S66N/T106N/T262R/W38E/Y61H); test: biochemical; type: binding
DRB1*0401 = DRB1*0401 (Homo sapiens, UniProt P01903+P01911, A100K/A169T/F76Y/I96L/K127E/L162R/M171V/N62H/P40V/Q125Y/R42H/S133A/S149N/S66Y/V115G/V209L/W38E); test: biochemical; type: binding
DRB1*0404 = DRB1*0404 (Homo sapiens, UniProt P01903+P01911, A100R/A169T/F76Y/I96L/K127E/L162R/M171V/N62H/P40V/Q125Y/R42H/S133A/S149N/S66Y/V209L/W38E); test: biochemical; type: binding
DRB1*0405 = DRB1*0405 (Homo sapiens, UniProt P01903+P01911, A100R/A169T/D86S/F76Y/I96L/K127E/L162R/M171V/N62H/P40V/Q125Y/R42H/S133A/S149N/S66Y/V115G/V209L/W38E); test: biochemical; type: binding
DRB1*0701 = DRB1*0701 (Homo sapiens, UniProt P01903+P01911, A100R/A102G/A103Q/D57E/D86V/E43K/F76Y/K127E/L162R/M171V/P40G/Q125H/Q99D/R33Q/R42Y/R54Q/S133A/S66F/T210M/V115G/Y107V/Y59L/Y89S); test: biochemical; type: binding
DRB1*0802 = DRB1*0802 (Homo sapiens, UniProt P01903+P01911, A100R/A103L/A169T/F76Y/H45Y/I96F/K41T/L162R/M171V/P40S/Q125H/Q178H/Q39Y/Q99D/R218S/R42G/S66Y/V115G/W38E); test: biochemical; type: binding
DRB1*0901 = DRB1*0901 (Homo sapiens, UniProt P01903+P01911, A100R/A103E/D57H/D86V/F55Y/F60I/F76Y/I96F/K127E/L162R/M171V/P40D/Q125H/Q99R/R33Q/R42F/S133A/S66N/T210M/V115G/W38K/Y107V/Y59G/Y89S); test: biochemical; type: binding
DRB1*1101 = DRB1*1101 (Homo sapiens, UniProt P01903+P01911, A100R/A169T/A87E/I96F/K41T/L162R/M171V/P40S/Q125H/Q178H/Q39Y/Q99D/R42S/S66Y/T262R/V115G/W38E); test: biochemical; type: binding
DRB1*1302 = DRB1*1302 (Homo sapiens, UniProt P01903+P01911, A100E/A169T/K41T/L162R/M171V/P40S/Q125H/Q178H/Q39Y/Q99D/R42S/S66N/T262R/V115G/W38E/Y61H); test: biochemical; type: binding; conditions: read-out: Binding Affinity (nM) DRB1*1302
DRB1*1501 = DRB1*1501 (Homo sapiens, UniProt P01903+P01911); test: biochemical; type: binding
[1] = test system: HLA transgenic mice (A02, A24, B07, DR2, DR3 and DR4); test: Immunogenicity screen in six HLA transgenic mice strains (summary); type: in vivo; conditions: IFN-γ ELISPOT in six TgM strains; Negative = none
[2] = read-out: Binding Affinity (nM) DRB1*0405
[3] = competitive inhibition of radiolabeled standard peptide, DRB1*0901, read-out: Binding Affinity (nM) DRB1*0901
[4] = competitive inhibition of radiolabeled standard peptide, DRB1*1302

For `CC[C@H](C)[C@H](NC(=O)[C@H](CCC(=O)O)NC(=O)CNC(=O)[C@@H](NC(=O)[C@@H](NC(=O)[C@@H](NC(=O)[C@H](CCC(N)=O)NC(=O)[C@H](Cc1ccccc1)NC(=O)[C@@H](NC(=O)CNC(=O)[C@@H]1CCCN1C(=O)[C@H](CCSC)NC(=O)[C@@H](NC(=O)[C@H](CCC(N)=O)NC(=O)[C@@H](N)Cc1ccccc1)[C@@H](C)O)[C@@H](C)O)[C@@H](C)O)[C@@H](C)O)[C@@H](C)O)C(=O)O` [NS3 109-123], the IC50 (DRB4*0101) was over 20000 nM.
For `CC[C@H](C)[C@H](NC(=O)[C@@H](N)CCCCN)C(=O)N[C@H](C(=O)N[C@@H](CCC(N)=O)C(=O)N[C@@H](Cc1c[nH]c2ccccc12)C(=O)N[C@@H](CC(C)C)C(=O)N[C@@H](CCC(=O)O)C(=O)N[C@H](C(=O)N[C@@H](CCCCN)C(=O)NCC(=O)N[C@H](C(=O)N[C@@H](CCC(=O)O)C(=O)N[C@@H](CCCNC(=N)N)C(=O)N[C@@H](CC(C)C)C(=O)N[C@@H](CCCCN)C(=O)N[C@@H](CCCNC(=N)N)C(=O)N[C@@H](CCSC)C(=O)O)C(C)C)[C@@H](C)O)[C@@H](C)O` [NS5 642-658], the IC50 (DRB1*0101) was 166 nM, the IC50 (DRB1*0301) was 775 nM and the IC50 (DRB1*0401) was 6300 nM. For the same compound, the IC50 (DRB1*0404; read-out: Binding Affinity (nM) DRB1*0404) was over 20000 nM, the IC50 (DRB1*0405; [2]) was over 20000 nM and the IC50 (DRB1*0701) was 24 nM. The IC50 (DRB1*0802) was 1500 nM, the IC50 (DRB1*0901) was 2430 nM and the IC50 (DRB1*1101) was 665 nM. For the same compound, the IC50 (DRB1*1302) was over 20000 nM and the IC50 (DRB1*1501) was 59 nM.
For `CC[C@H](C)[C@H](NC(=O)[C@H](C)NC(=O)[C@@H](N)CCSC)C(=O)N[C@@H](CO)C(=O)NCC(=O)N[C@@H](CC(=O)O)C(=O)N[C@@H](CC(=O)O)C(=O)N[C@@H](CS)C(=O)N[C@H](C(=O)N[C@H](C(=O)N[C@@H](CCCCN)C(=O)N1CCC[C@H]1C(=O)N[C@H](C(=O)N[C@@H](CC(=O)O)C(=O)N[C@@H](CC(=O)O)C(=O)N[C@@H](CCCNC(=N)N)C(=O)N[C@@H](Cc1ccccc1)C(=O)O)[C@@H](C)CC)C(C)C)C(C)C` [NS5 658-674], the IC50 (DRB1*0101) was 6910 nM, the IC50 (DRB1*0301) was 2680 nM and the IC50 (DRB1*0401) was 8600 nM. For the same compound, the IC50 (DRB1*0404) was 6340 nM, the IC50 (DRB1*0405) was 2270 nM and the IC50 (DRB1*0701) was 2770 nM. The IC50 (DRB1*0802) was 453 nM, the IC50 (DRB1*0901) was 12200 nM and the IC50 (DRB1*1101) was 7320 nM. For the same compound, the IC50 (DRB1*1302) was over 20000 nM and the IC50 (DRB1*1501) was 6690 nM.
In the case of `CC[C@H](C)[C@H](NC(=O)[C@H](CC(C)C)NC(=O)[C@H](CCC(=O)O)NC(=O)[C@@H](N)Cc1c[nH]cn1)C(=O)N[C@@H](CCSC)C(=O)N[C@@H](CCCCN)C(=O)N[C@@H](CC(=O)O)C(=O)NCC(=O)N[C@@H](CCCNC(=N)N)C(=O)N[C@@H](CCCCN)C(=O)N[C@@H](CC(C)C)C(=O)N[C@H](C(=O)N[C@H](C(=O)N1CCC[C@H]1C(=O)N[C@@H](CS)C(=O)N[C@@H](CCCNC(=N)N)C(=O)O)C(C)C)C(C)C` [NS5 714-729], the IC50 (DRB1*0101) is reported as 15 nM, the IC50 (DRB1*0301) is reported as 37 nM and the IC50 (DRB1*0401) is reported as 6950 nM. For the same compound, the IC50 (DRB1*0404) was 14100 nM, the IC50 (DRB1*0405; [2]) was over 20000 nM and the IC50 (DRB1*0701) was 2850 nM. For the same compound, the IC50 (DRB1*0802) was 2290 nM, the IC50 (DRB1*0901; [3]) was 690 nM and the IC50 (DRB1*1101) was 671 nM. The IC50 (DRB1*1302; [4]) was 11 nM and the IC50 (DRB1*1501) was 66 nM.
`CC[C@H](C)[C@H](NC(=O)[C@H](CC(C)C)NC(=O)[C@H](CCC(=O)O)NC(=O)[C@H](CC(=O)O)NC(=O)[C@H](CCC(N)=O)NC(=O)[C@@H]1CCCN1C(=O)[C@H](CCCNC(=N)N)NC(=O)[C@H](CS)NC(=O)[C@@H]1CCCN1C(=O)[C@@H](NC(=O)[C@@H](NC(=O)[C@H](CC(C)C)NC(=O)[C@H](CCCCN)NC(=O)[C@H](CCCNC(=N)N)NC(=O)CNC(=O)[C@H](CC(=O)O)NC(=O)[C@@H](N)CCCCN)C(C)C)C(C)C)C(=O)O` [NS5 719-735] was tested, and the IC50 (DRB1*0101) was 214 nM, the IC50 (DRB1*0301) was 44 nM and the IC50 (DRB1*0401; read-out: Binding Affinity (nM) DRB1*0401) was over 20000 nM. It also gave an IC50 (DRB1*0404) of 190 nM, an IC50 (DRB1*0405) of 22 nM and an IC50 (DRB1*0701) of 5560 nM. The IC50 (DRB1*0802) was 9360 nM, the IC50 (DRB1*0901; [3]) was 5510 nM and the IC50 (DRB1*1101) was 1030 nM. It also gave an IC50 (DRB1*1302; [4]) of 229 nM and an IC50 (DRB1*1501) of 1950 nM.
“AAEMEEALKGLPIRY [NS3_229–243, DENV3 NS3 15-mer overlapping library peptide]” was tested, and the “TGM (HLA transgenic mice in which the peptide was immunogenic)” value (shortened to “TGM”) [1] was “Negative/NDNegative/NDNegative/ND”.
“DGEYRLKGESRKTFV [NS3_521–535, DENV3 NS3 15-mer overlapping library peptide]” was tested, and the “TGM” value [1] was “Negative/NDNegative/NDNegative/ND”.
For “EIWTKEGEKKKLRPR [NS3_581–595, DENV3 NS3 15-mer overlapping library peptide]”, the “TGM” value [1] was “Negative”.
For “ESRKTFVELMRRGDL [NS3_529–543, DENV3 NS3 15-mer overlapping library peptide]”, the “TGM” value [1] was “Negative/NDNegative/NDNegative/ND”.
For “FFDLPLPWTSGATTE [Env211–225, DENV3 Envelope 15-mer overlapping library peptide]”, the “TGM” value [1] was “Negative/NDNegative/ND”.
In the case of “GTSGSPIINREGKVV [NS3_133–147, DENV3 NS3 15-mer overlapping library peptide]”, the “TGM” value [1] is reported as “Negative/NDNegative/ND”.
In the case of “IVDLMCHATFTMRLL [NS3_257–271, DENV3 NS3 15-mer overlapping library peptide]”, the “TGM” value [1] is reported as “Negative/NDNegative/NDNegative/ND”.
For “KEGEKKKLRPRWLDA [NS3_585–599, DENV3 NS3 15-mer overlapping library peptide]”, the “TGM” value [1] was “Negative”.
With “KSEHTGREIVDLMCH [NS3_249–263, DENV3 NS3 15-mer overlapping library peptide]” the “TGM” value [1] was “Negative/NDNegative/NDNegative/ND”.
“KVVGLYGNGVVTKNG [NS3_145–159, DENV3 NS3 15-mer overlapping library peptide]” was tested, and the “TGM” value [1] was “Negative”.
In the case of “KYTDRKWCFDGERNN [NS3_557–571, DENV3 NS3 15-mer overlapping library peptide]”, the “TGM” value [1] is reported as “Negative/NDNegative/ND”.
For “LTIMDLHPGSGKTRK [NS3_189–203, DENV3 NS3 15-mer overlapping library peptide]”, the “TGM” value [1] was “Negative”.
“NMDVEIWTKEGEKKK [NS3_577–591, DENV3 NS3 15-mer overlapping library peptide]” was tested, and the “TGM” value [1] was “Negative”.
With “SEGIKYTDRKWCFDG [NS3_553–547, DENV3 NS3 15-mer overlapping library peptide]” the “TGM” value [1] was “Negative/NDNegative/ND”.
With “TGREIVDLMCHATFT [NS3_253–267, DENV3 NS3 15-mer overlapping library peptide]” the “TGM” value [1] was “Negative/NDNegative/NDNegative/ND”.
With “TRVVAAEMEEALKGL [NS3_225–239, DENV3 NS3 15-mer overlapping library peptide]” the “TGM” value [1] was “Negative/NDNegative/NDNegative/ND”.
In the case of “VHRQWFFDLPLPWTS [Env206–220, DENV3 Envelope 15-mer overlapping library peptide]”, the “TGM” value [1] is reported as “Negative/NDNegative/ND”.
